{"source": "paper PMC2363125", "about": "(British Journal of Cancer, 1999)", "tested_on": "L1210 cells", "settings": "mouse", "source_text": "In particular, inhibition of thymidylate synthase (TS) is an attractive target for antimetabolite chemotherapy because thymine is the only nucleobase found exclusively in DNA and TS is a key enzyme, possibly the rate-limiting step, in DNA synthesis. One locus of action of 5-fluorouracil (5-FU), which is widely used for the treatment of colorectal, breast and head-and- neck cancer, is TS inhibition following its intracellular conversion to 5-FdUMP. […] Inhibition of TS results in the depletion of intracellular dTTP and, as a result of elevated dUMP levels, an accummulation of dUTP. […] In addition, release of nucleic acids from dead cells may result in high local concen- trations of salvageable nucleosides and bases in tumours. […] Cell number and viability in each assay was determined by haemocytometer counting using trypan blue exclu- sion. […] The rate of thymidine uptake in the presence and absence of inhibitor was calculated by unweighted linear regres- sion analysis of thymidine uptake (pmol 10-6 cells) vs time (seconds) using GraphPad PRISMTM software (GraphPad Software Inc. San Diego, CA, USA). […] Kt and Tmax values were calculated using the equation describing a one-site binding hyperbola, fitted using GraphPad PRISM software. […] Replicate aliquots of the remaining cell suspension were counted to obtain a time zero cell count.", "data": [{"smiles": "OCCN(CCO)c1nc(N2CCCCC2)c2nc(N(CCO)CCO)nc(N3CCCCC3)c2n1", "note": "[Dipyridamole, 2,6-bis-(diethanolamino)-4,8-di-piperidino-pyrimidopyrimidine]", "values": [{"measurement": "LC50 of 5-FU", "result": 3.4, "unit": "M"}]}]}
